Values quoted from earlier work in US20210214399A1, “PH LOW INSERTION PEPTIDE AND COMPOSITION THEREOF” (priority 2017, published 2021).

Assays:
[1] = background art, compared with wild-type pHLIP; cited from earlier work
[2] = aqueous solution of neutral pH; cited from earlier work

Sequence | elimination rate in the blood [1] | concentration of the pHLIP monomer [2]
ACEEQNPWARYLEWLFPTETLLLEL [var7] | accelerates the elimination rate in the blood | –
ACEQNPIYWARYADWLFTTPLLLLDLALLVDADEGT [WT] | – | less than 30 μg/ml
